In this experiment the target is N-succinyl-Ala-Ala-Pro-Phe-p-nitroanilide (Artificial Sequence).

Our source for the kcat/KM (Michaelis-Menten kinetics of substrate hydrolysis, pH 8, 37° C.) values is US12053529B2, “Amino-reactive positively charged ATRP initiators that maintain their positive charge during synthesis of biomacro-initiators” (Carnegie Mellon University, priority 2018, dated 2024).

Take “α-chymotrypsin (CT) from bovine pancreas (type II) (from UniProt P00766) (enzyme)”: the kcat/KM (Michaelis-Menten kinetics of substrate hydrolysis, pH 8, 37° C.) was found to be 0.25 µM^-1s^-1.
